pKd: −log10 of the molar value.
Assays:
streptavidin [1] = target: streptavidin (UniProt P22629); assay: Biacore SPR, calculated from the association and dissociation rates
streptavidin [2] = target: streptavidin (UniProt P22629); assay: Biacore SPR, fusion protein immobilized by amine coupling, pulse of 23, 11.5 or 5.75 µM streptavidin
streptavidin [3] = target: streptavidin (UniProt P22629); assay: Biacore SPR, fusion protein immobilized by amine coupling, streptavidin 0.05-1.6 µM in flow

pKd (streptavidin [1]): > 7.40
koff (streptavidin [2]): < 0.002 s⁻¹
kon (streptavidin [3]): 50000 M⁻¹ s⁻¹
Substance: SB19-C4 streptavidin-binding fusion protein of maltose-binding protein, first 38 amino acids of SB19-C4 and hexahistidine tag (other; other documents disagree on this pair)

From patent US6841359
